Source: patent US11407765B2, “Tetracyclic heteroaryl compounds” (AstraZeneca AB, priority 2018, dated 2022)

Protein sequences, listed by entry. Tags and fused reporters are not part of them. Residues count along the entry.
UniProt P01116, 1-188 isoform 2 G12C: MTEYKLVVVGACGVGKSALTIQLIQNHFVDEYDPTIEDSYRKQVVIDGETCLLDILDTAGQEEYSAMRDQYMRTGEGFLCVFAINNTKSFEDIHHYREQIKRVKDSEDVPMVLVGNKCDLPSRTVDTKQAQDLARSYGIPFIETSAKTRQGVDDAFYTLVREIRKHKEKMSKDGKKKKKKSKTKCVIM

Biological target: KRasG12C (Homo sapiens, UniProt P01116, G12C)
Assay: KRasG12C functional assay (HTRF, SOS-mediated nucleotide exchange / Raf RBD binding)
Format: biochemical
Settings: read-out: KRasG12C functional assay IC50 value; 4 hrs incubation with GDP loaded biotinylated KRasG12C; single experiment or average of two or more

`Cc1ccc2[nH]ncc2c1-c1c(Cl)c2c3c(ncnc3c1F)N1C[C@@H](C)N(C(=O)/C=C/CN(C)C)C[C@H]1CO2` [Example 52] gave an IC50 of 2.14 µM.
For `Cc1ccc2[nH]ncc2c1-c1c(Cl)c2c3c(ncnc3c1F)N1C[C@@H](C)N(C(=O)/C=C/CN(C)C)C[C@H]1CO2` [Example 53], the IC50 was 0.186 µM.
